Target: Ku70/Ku80ΔC heterodimer, P12956;P13010
Assay: fluorescence polarisation
Conditions: read at the highest Ku concentration, about 16 µM KuΔC; 100 nM fluorescein-labeled peptide; room temperature; 20 mM HEPES pH 7.5, 200 mM NaCl, 0.5 mM TCEP; parent: est. 300; read off a plot

## fluorescein-labelled MRI-A peptide (APLF-like KBM of MRI) W16A
  response: 15 millidegrees

— paper PMC4831024
